The assay has as its target T1, Rhodopsin kinase GRK1 (Homo sapiens, UniProt Q15835).
T1 sequence (Q15835 whole entry): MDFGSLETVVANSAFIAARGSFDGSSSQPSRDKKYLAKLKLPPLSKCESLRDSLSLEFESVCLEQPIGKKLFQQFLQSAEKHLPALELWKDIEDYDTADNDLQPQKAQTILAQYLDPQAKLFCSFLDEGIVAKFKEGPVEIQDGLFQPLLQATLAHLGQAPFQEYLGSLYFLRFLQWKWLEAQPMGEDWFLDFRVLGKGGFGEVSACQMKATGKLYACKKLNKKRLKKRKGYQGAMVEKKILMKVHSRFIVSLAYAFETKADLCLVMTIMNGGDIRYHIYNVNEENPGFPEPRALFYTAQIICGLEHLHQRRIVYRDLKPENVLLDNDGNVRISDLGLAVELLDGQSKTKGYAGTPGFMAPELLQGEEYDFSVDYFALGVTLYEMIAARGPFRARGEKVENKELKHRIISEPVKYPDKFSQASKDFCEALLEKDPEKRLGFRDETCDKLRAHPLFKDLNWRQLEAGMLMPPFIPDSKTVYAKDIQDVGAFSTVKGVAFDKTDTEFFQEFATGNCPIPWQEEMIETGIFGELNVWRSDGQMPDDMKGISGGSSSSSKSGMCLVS
The assay is described as follows: Inhibition of GRK1 (unknown origin) using tubulin as substrate by SDS-PAGE method.

In general, pIC50 refers to −log10 of the IC50, conventionally taken in molar units. High values mean a low IC50, low ones a high IC50.

pIC50: −log10 of the molar value.

For the compound `CC1=C(C(=O)Nc2ccc3[nH]ncc3c2)C(c2ccc(F)c(C(=O)NCc3nccc4ccccc34)c2)NC(=O)N1` (stereo unspecified), the pIC50 was 7.00.

Values taken from ChEMBL document CHEMBL3808388 (J Med Chem, 2016).
